Values of other authors as cited in patent US5352772A, “75 Kilodalton interleukin-2 receptor proteins and their uses” (The Trustees of Dartmouth College, priority 1986, dated 1994).

Tested on: IL-2 receptors
Details: cited from earlier work

For “IL-2: 15,000 dalton glycoprotein lymphokine; homogeneous recombinant IL-2 provided by Takeda Chemical Industries”, the “increase in cell surface density of Tac antigen+ low affinity IL-2 binding sites” value (IL-2 mediated, earlier experiments) is listed as 10 fold and the “decline of high affinity IL-2 receptors” value (in the presence of IL-2) is listed as at most 50%.
